# Biological target: VBC ternary complex (pVHL, Elongin B, Elongin C) (UniProt P40337)
# Sequences of proteins named here, by UniProt entry; tags and fusion partners are left off.
# UniProt P40337, whole entry, chain 1 of 3: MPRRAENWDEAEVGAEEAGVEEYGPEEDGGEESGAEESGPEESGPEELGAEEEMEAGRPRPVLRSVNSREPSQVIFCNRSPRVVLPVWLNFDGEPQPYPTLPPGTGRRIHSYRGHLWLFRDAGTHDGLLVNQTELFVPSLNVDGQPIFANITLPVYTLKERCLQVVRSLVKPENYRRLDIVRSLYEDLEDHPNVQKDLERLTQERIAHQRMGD
# UniProt Q13617, whole entry, looked up, tested part not stated: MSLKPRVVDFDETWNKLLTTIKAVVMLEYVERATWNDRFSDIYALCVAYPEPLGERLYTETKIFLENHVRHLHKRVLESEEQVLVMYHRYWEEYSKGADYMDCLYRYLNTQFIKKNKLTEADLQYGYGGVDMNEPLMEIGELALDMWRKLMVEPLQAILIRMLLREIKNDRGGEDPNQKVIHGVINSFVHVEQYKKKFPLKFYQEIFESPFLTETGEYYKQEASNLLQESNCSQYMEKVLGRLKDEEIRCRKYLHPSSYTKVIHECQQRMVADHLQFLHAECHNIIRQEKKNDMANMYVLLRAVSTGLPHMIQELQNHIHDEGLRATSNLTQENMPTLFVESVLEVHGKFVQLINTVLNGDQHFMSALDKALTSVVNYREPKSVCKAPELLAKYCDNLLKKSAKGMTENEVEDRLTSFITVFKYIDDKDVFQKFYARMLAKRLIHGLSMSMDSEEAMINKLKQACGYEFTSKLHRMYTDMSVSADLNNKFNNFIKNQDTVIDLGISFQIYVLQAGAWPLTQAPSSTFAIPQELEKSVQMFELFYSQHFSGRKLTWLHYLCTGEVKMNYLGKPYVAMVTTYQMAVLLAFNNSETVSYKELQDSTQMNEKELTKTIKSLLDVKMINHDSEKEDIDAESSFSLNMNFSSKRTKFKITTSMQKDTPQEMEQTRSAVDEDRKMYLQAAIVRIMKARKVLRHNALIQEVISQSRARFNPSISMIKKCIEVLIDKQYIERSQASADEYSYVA
# Assay: BLI; biotinylated VBC (25 ug/mL) immobilised on Super Streptavidin biosensors, peptides titrated; Octet RED384; 25 °C; 20 mM HEPES pH 7.6, 100 mM NaCl, 1 mM DTT, 0.02 % Tween-20; reference tips subtracted; 1:1 model
substance,measurement,value
"peptide B (8-mer Cul2 peptide, Leu3 replaced by tryptophan) (from UniProt Q13617 1-8)",Kd,18 mM

# Reference: publication PMC5639367, “Structure‐Guided Design of Peptides as Tools to Probe the Protein–Protein Interaction between Cullin‐2 and Elongin BC Substrate Adaptor in Cullin RING E3 Ubiquitin Ligases” (Chemmedchem, 2017)
